# Experimental data: PubChem BioAssay AID504523 (Broad Institute, 2011)
# The chains behind the UniProt entries cited, without tags or fusion partners.
# UniProt Q14145, whole entry: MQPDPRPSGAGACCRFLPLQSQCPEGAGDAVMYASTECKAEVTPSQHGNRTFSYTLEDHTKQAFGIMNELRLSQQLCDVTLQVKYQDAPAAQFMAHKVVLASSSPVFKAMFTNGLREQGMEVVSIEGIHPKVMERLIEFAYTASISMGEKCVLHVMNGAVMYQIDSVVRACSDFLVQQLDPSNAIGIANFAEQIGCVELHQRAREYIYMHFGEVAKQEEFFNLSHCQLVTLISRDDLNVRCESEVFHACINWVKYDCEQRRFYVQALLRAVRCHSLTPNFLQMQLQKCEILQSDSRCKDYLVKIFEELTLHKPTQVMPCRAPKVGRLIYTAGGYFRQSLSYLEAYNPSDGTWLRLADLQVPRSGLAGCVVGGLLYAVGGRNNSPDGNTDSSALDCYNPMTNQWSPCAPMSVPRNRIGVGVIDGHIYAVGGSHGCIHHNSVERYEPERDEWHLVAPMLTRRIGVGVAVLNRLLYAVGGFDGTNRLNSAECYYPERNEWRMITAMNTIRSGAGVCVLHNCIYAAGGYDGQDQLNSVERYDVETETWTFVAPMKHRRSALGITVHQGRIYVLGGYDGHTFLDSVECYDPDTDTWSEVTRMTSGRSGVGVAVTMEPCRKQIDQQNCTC
# UniProt Q16236, whole entry partner: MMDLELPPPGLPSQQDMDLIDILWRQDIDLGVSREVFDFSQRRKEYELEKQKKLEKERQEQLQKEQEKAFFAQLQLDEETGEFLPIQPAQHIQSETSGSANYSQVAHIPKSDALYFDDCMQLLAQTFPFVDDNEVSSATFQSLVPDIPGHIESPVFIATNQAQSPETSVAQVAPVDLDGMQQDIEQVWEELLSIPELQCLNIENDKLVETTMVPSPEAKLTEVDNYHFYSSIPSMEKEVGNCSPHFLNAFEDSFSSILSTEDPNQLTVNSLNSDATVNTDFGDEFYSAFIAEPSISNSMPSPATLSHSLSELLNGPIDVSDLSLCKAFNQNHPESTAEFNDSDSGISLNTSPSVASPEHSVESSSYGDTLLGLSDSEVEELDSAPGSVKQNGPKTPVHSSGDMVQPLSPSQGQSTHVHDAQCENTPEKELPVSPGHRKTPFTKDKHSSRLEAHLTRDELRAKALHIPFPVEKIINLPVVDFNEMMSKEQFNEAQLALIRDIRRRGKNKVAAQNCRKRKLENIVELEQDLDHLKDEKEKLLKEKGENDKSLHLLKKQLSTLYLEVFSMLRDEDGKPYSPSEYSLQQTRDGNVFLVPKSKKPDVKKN
# The entries are a selection whose mix differs from that of the whole data set. Some tests of the compounds listed are not included; inactive here does not mean inactive elsewhere. Active and inactive are the calls of the source. Cut-off read from the data, not from the text of the source: active = inhibition above about 12%; inconclusive = no clear call, values can overlap the other calls; inactive = below about 7.3%.
# Molecular target: Kelch-like ECH-associated protein 1 (Homo sapiens) (UniProt Q14145)
# Assay: disruptors of Keap1 binding to Nrf2 – biochemical, fluorescence polarization, single point, primary screen (AID 504523);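 note: human Keap1 Kelch domain with fluorescein labeled Nrf2 9mer peptide probe; 0% = neutral control wells and 100% = peptide positive control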
# Settings: Keap1 Kelch-Nrf2 peptide fluorescence polarization, 1536-well; at 9.4 µM; stronger effect = higher value
row,Structure (SMILES),inhibition
1,CN(C)C1(CNC(=O)c2ccc(Br)cc2)CCCCC1,inactive: 2.12%
2,COc1cc(C(=O)NCC2(N(C)C)CCCCC2)c([N+](=O)[O-])cc1OC,inactive: 4.16%
3,COc1ccc(Cl)cc1C(=O)NCC1(N(C)C)CCCCC1,inactive: -5.74%
4,COc1cccc(C(=O)NCC2(N3CCCCC3)CCCCC2)c1,inactive: 2.16%
5,O=C(NCC1(N2CCCCC2)CCCCC1)c1cccc(Cl)c1,inactive: -2.26%
6,O=C(OC1CN2CCC1CC2)C(CO)(c1ccccc1)c1ccccc1 (stereo not given),inactive: -1.33%
7,COc1ccc(Br)c(C(=O)NCC2(N3CCCCC3)CCCCC2)c1,inactive: -5.3%
8,O=C(OCCN1CCCC1)C(O)(c1ccccc1)c1ccccc1,inactive: -1.35%
9,CC(C)Oc1ccc(C(=O)NCC2(N(C)C)CCCCC2)cc1,inactive: 1.72%
10,CN(C)c1cccc(C(=O)NCC2(N(C)C)CCCCC2)c1,inactive: 2.29%
11,O=C(NCC1(N2CCCCC2)CCCCC1)c1cc([N+](=O)[O-])ccc1Cl,inactive: -5.55%
12,CN1[C@@H]2CC[C@H]1CC(OC(=O)C(O)(c1ccccc1)c1ccccc1)C2 (stereo not given in full),inactive: -0.454%
13,COc1cc(SC)ccc1C(=O)NCC1(N(C)C)CCCCC1,inactive: 0.595%
14,CCN(CC)CC(C)C(C)OC(=O)C(O)(c1ccccc1)c1ccccc1 (stereo not given),inactive: -1.24%
15,CC(C)N1C(=O)CC2(CCN(CCOC(=O)C(O)(c3ccccc3)c3ccccc3)CC2)C1=O,inactive: 2.85%
16,Cc1ccc(C(=O)NCC2(N3CCCCC3)CCCCC2)cc1,inactive: -3.5%
17,CN(C)c1ccc(C(=O)NCC2(N(C)C)CCCCC2)cc1,inactive: 0.0049%
18,CN(C)C1CCCC1OC(=O)C(O)(c1ccccc1)c1ccccc1 (stereo not given),inactive: -4.39%
19,Cc1ccccc1C(=O)NCC1(N2CCCCC2)CCCCC1,inactive: 3.54%
20,O=C(NCC1(N2CCCCC2)CCCCC1)c1cc(F)c(F)cc1Cl,inactive: 2.94%
21,C=CCN1CCN(CCOC(=O)C(O)(c2ccccc2)c2ccccc2)CC1,inactive: -1.67%
22,COc1ccc(C(=O)NCC2(N(C)C)CCCCC2)cc1,inactive: -2.66%
23,O=C(NCC1(N2CCCCC2)CCCCC1)c1cccc(Br)c1,inactive: 1.45%
24,CCN1CCCC(OC(=O)C2(O)c3ccccc3C=Cc3ccccc32)C1 (stereo not given),inactive: 0.691%
25,Cc1cc(C(=O)NCC2(N3CCCCC3)CCCCC2)ccc1[N+](=O)[O-],inactive: 3.19%
